Biological target: T1, COX-1 (Homo sapiens, UniProt P23219)
T1 construct: Fresh blood from healthy volunteers; from tissue; host or cells: human whole blood (heparinized) from healthy volunteers
Assay: COX-1 activity in human whole blood (TXB2, calcium ionophore A23187)
Assay type: cell-based
Conditions: 1 h at 37° C., TXB2 by ELISA

Amino acid sequences for entries named in this document (tags omitted). Residues count along the entry.
UniProt P23219, 24-599: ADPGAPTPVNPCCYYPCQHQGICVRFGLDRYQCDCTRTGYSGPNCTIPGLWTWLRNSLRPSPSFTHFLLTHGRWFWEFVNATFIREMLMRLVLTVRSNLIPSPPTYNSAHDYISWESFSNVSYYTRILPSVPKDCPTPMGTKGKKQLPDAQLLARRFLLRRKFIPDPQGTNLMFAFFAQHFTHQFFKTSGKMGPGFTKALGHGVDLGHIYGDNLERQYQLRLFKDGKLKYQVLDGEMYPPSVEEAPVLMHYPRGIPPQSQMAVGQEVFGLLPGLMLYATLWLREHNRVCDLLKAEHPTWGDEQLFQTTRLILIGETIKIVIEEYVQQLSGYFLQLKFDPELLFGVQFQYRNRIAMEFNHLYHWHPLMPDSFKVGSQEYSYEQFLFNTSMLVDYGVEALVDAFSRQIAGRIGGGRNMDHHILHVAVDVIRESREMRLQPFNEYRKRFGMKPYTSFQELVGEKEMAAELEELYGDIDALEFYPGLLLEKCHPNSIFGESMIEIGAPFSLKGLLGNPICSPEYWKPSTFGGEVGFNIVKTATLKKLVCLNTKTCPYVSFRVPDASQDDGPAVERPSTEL

IC50: 21.2 µM
SMILES: Cc1cc(=O)c(Oc2ccc(F)cc2C)c(-c2ccc(S(C)(=O)=O)cc2)o1 [Example 1, 3-(4-Fluoro-2-methylphenoxy)-2-(4-methanesulfonylphenyl)-6-methyl pyran-4-one]

Source: US7354936B2, “2-phenylpyran-4-one derivatives” (Almirall AG, priority 2000, dated 2008)
